IC50 data for one molecule are collected here from ChEMBL document CHEMBL3886721, “Thienopyrimidine compounds and use thereof” (2016).

The assay has as its target T1, Gonadotropin-releasing hormone receptor (Macaca fascicularis, UniProt G7P5Q7).
T1 sequence (G7P5Q7 whole entry): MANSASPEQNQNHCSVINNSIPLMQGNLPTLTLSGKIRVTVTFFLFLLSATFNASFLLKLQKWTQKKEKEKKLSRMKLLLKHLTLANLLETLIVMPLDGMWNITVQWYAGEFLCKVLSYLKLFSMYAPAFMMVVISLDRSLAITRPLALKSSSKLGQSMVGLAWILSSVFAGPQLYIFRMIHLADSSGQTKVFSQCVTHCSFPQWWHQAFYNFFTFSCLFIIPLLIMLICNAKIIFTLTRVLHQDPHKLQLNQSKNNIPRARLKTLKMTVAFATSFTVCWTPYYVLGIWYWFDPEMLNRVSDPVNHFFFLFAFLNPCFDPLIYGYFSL
Description: 125I-Leuprorelin Binding Assay: The monkey and human membrane fractions prepared were diluted with the assay buffer to yield a 200 µg/ml dilution, each of which was then dispensed at 188 μl per tube. To a tube containing the cell membrane fraction of the CHO with monkey GnRH receptors expressed were added 2 μl of a solution of 20 mM compound in 60% DMSO and 10 μl of 38 nM 125I-leuprorelin. To a tube containing the cell membrane fraction of the CHO with human GnRH receptors expressed were added 2 μl of a solution of 2 mM compound in 60% DMSO and 10 μl of 38 nM 125I-leuprorelin. To determine maximum binding quantity, a reaction mixture containing 2 μl of 60% DMSO and 10 μl of 38 nM 125I-leuprorelin was prepared. To determine non-specific binding amount, a reaction mixture containing 2 μl of a solution of 100 μM leuprorelin in 60% DMSO and 10 μl of 38 nM 125I-leuprorelin was prepared.

As a reminder, the IC50 is the concentration that gives 50% inhibition. Regarding `COCCN(C)Cc1c(-c2ccc(NC(=O)NOC)cc2)sc2c1c(=O)n(-c1ccccn1)c(=O)n2Cc1c(F)cccc1F`, the concentration for half-maximal inhibition (IC50) came out at 9 nM.
